Source: patent publication US9969796B2, “Peptides and binding partners therefor” (priority 2013, dated 2018)

System: EGFR signalling in oral epithelial cells (TR146)
Type: cell-based, human

SMILES: COc1cc2ncnc(Nc3ccc(F)c(Cl)c3)c2cc1OCCCN1CCOCC1 [Gefitnib]
- activation of MAPK intracellular signalling (phosphorylated p38, JNK and ERK1/2): inhibits
